Test results published in US12054477B2, “Prodrug of pyrrolidone derivatives as glucokinase activator” (HUA MEDICINE (SHANGHAI) LTD., priority 2021, dated 2024).

What was measured:
[1] = SIF pH about 6.80, 37° C., 2 μM
[2] = Stability test of compounds in Simulated Gastric Fluid (SGF); assay type: in vitro ADME; conditions: SGF pH about 1.20, 37° C., 2 μM
Description: Preparation of Simulated Gastric Fluid (SGF): Dissolve 0.04 g NaCl and 0.064 g pepsin in 0.14 mL HCl and add sufficient H2O to make the final volume to 20 mL. The pH of the test solution was about 1.20±0.05.

[3] = Simulated metabolic test of compounds in Human Intestine S9; assay type: in vitro ADME; conditions: HIS9 0.5 mg/mL, 37° C., time point 0 min
Description: Preparation of Phosphate Buffer (PB): Dissolve 73.21 g K2TIPO4·3H2O (AR grade) and 10.78 g KH2PO4 (AR grade) in ultra-pure water to make the final volume to 4000 mL and the final concentration to 100 mM. The pH of the final test solution was adjusted to pH 7.40±0.10 with H3PO4/KOH.
Preparation of test compound working solution: 5 μL of test compound stock solution (10 mM in DMSO) were diluted with 995 μL of acetonitrile (ACN) to give a test compound working solution (intermediate solution concentration: 50 mM, 990 ACN)
The main materials of the test are shown in Table 4, and the parameters of preparation components of human intestinal S9 (HIS9) solution are shown in Table 5.
An Apricot automation workstation was used to add 50 μL/well of HIS9 solution to the corresponding wells of all reaction plates (blank, T0, T5, T15, T30, T45, T60).
Using an Apricot automation workstation, 2 μL/well of test compound working solution was added to the corresponding wells of all 96-well reaction plates except the blank (T0, T5, T15, T30, T45, T60).
An Apricot automation workstation was used to add 48 μL/well of PB to the corresponding wells of every reaction plate (Blank, T0, T5, T15, T30, T45, T60) to start the reaction.
The reaction plates were incubated at 37° C., and timer was started. […]

Caco-2 cells = experiment: Bi-directional permeability test using Caco-2 cells

CC(C)C[C@@H](C(=O)Nc1ccn(C[C@@H](O)COC(=O)c2cccnc2)n1)N1CC(Oc2ccccc2Cl)=CC1=O [Compound 3]
Remaining of Test Compound (%) ([1]; time point 0 hr): 100.00% | Remaining of Test Compound (%) ([1]; time point 1 hr): 53.14% | Remaining of Test Compound (%) ([1]; time point 6 hr): 2.35% | Remaining of Test Compound (%) ([1]; time point 24 hr): 0.00% | Remaining of Test Compound (%) ([2]; time point 0 hr): 100.00% | Remaining of Test Compound (%) ([2]; time point 1 hr): 90.35% | Remaining of Test Compound (%) ([2]; time point 2 hr): 95.99% | Remaining of Test Compound (%) ([2]; time point 6 hr): 90.10% | Remaining of Test Compound (%) ([2]; time point 24 hr): 89.48% | Remaining of Test Compound (%) [3]: 100% | Permeability from A to B (in words) (Caco-2 cells): low | Permeability from B to A (in words) (Caco-2 cells): high | Substrate for efflux transporters (in words) (Caco-2 cells): likely to be the substrate for efflux transporters

Like-named read-outs stand apart in the source and are kept apart here.
